Reference: publication PMC6316731 (Brain Sciences, 2018)
pEC50: −log10 of the molar value.

Chains of the proteins cited; added tags and fusions are not shown. Residues count along the entry.
UniProt P22723, 39-474 limits assumed: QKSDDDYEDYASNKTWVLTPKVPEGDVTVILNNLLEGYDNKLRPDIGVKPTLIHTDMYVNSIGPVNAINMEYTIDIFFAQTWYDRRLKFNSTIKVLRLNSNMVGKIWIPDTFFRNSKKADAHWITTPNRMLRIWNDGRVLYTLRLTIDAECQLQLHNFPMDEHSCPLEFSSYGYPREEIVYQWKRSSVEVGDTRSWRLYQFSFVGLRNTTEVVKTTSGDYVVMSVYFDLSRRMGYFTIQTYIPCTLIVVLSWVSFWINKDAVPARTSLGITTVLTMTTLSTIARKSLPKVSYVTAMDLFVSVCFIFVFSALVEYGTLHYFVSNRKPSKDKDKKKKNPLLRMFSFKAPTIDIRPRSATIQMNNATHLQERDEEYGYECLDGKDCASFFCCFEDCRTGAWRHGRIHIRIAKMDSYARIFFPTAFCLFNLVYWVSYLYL
UniProt Q8BHJ7, 32-463 limits assumed: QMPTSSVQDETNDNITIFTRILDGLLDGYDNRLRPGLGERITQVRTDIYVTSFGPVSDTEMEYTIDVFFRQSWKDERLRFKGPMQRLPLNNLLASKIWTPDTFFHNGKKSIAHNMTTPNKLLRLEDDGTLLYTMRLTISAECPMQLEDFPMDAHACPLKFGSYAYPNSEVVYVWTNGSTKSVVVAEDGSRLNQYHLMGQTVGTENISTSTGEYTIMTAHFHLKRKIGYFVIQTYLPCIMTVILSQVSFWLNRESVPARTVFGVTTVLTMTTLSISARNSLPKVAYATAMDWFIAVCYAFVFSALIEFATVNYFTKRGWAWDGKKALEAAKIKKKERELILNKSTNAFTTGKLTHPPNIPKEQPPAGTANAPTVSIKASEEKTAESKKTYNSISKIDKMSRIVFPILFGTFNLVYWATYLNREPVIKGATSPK
UniProt P63080, 26-473 partner limits assumed: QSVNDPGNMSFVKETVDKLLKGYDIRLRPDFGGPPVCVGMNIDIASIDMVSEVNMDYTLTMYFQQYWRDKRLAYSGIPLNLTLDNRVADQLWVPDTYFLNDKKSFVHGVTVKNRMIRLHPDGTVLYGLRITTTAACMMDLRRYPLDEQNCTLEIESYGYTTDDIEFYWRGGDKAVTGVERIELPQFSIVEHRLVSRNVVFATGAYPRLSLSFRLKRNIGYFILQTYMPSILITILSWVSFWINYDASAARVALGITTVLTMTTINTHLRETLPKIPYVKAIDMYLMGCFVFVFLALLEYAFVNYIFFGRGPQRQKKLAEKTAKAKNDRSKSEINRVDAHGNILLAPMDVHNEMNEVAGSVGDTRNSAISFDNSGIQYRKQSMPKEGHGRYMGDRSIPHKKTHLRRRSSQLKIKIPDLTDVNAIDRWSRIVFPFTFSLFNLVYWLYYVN

Tests used:
[1] = system: GABAA receptors containing the α5 subunit; details: cited from earlier work
[2] = target: GABAA receptor α5 subunit (Mus musculus, UniProt P22723+Q8BHJ7); test: Reduction of IGABA by co-application of L-655708 in MSNs; type: cell-based

In the case of `CCOC(=O)c1ncn2c1[C@@H]1CCCN1C(=O)c1cc(OC)ccc1-2`, the “Selectivity for GABAA receptors containing the α5 subunit over those that contain α1, α2, α3 and α6” value [1] is given as 50-100 times, the “Effect on IGABA amplitude” value [2] is given as “small reduction of the IGABA amplitude” and the pEC50 ([2]; read-out: EC50, GABA current density in the presence of L-655708) is given as 6.92.
